Results on one substance are retold here after patent US20140205660A1, “Abscisic acid against cancer” (priority 2013, published 2014).

Where two headings read alike, the source gives them in different places. Where only a bound is given, the exact number is not on record here.

The conditions of series [1]: rats fed with diet containing ABA; cited from earlier work.
The conditions of series [2]: in vivo; cited from earlier work.
The conditions of series [3]: cited from earlier work.
For series [4] the following is noted: rat; cited from earlier work.
In series [5] the test system is Chinese hamster ovary (CHO) cells. As to conditions: cited from earlier work.
The conditions of series [6]: cited from earlier work. The source holds these as a separate data set.
The conditions of series [7]: cited from earlier work. The source holds these as a separate data set.
Series [8] is described as follows: ABA ionization versus pH from HPLC retention factors (Kelen 2004). The format is physicochemical. As to conditions: rounded value in brackets. The source says: Research of Kelen et al. 2004, denominated “Separation of Abscisic acid, Indole-3-acetic, Gibberellic Acid in 99r (Vitis berlandieri×Vitis rupestris) and Rose Oil (Rosa damascena mill.) by Reversed Phase Liquid Chromatography” may help to determine and verify ABA dissociation according the pH. In this study it is considered that, retention in the mobile phase of carboxylic groups which are contained in these hormones depends on the percentage of ionized and non-ionized species. […] Measurement of ABA pK value in the assay was calculated (pK=5.82) at 30% of acetonitrile. The ABA dissociation in the assay can be verified by using the Henderson-Hasselbalch equation as follows:
pH=pk+log [BASE/ACID]→4=5.82+log [BASE/ACID]
−1.82=log [BASE/ACID]→antilog(−1.82)=[BASE/ACID]
The result of the calculation is a proportion as follows:
Also retention factors can be transformed in percent of non-ionized and ionized forms as follows: […]

For series [9] the following is noted: different animal experiments; cited from earlier work.
The conditions of series [10]: cited from earlier work. This is another data set of the same source.

“[S-(Z,E)]-5-(1-Hydroxy-2,6,6-trimethyl-4-oxo-2-cyclohexen-1-yl)-3-methyl-2,4-pentadienoic acid [ABA]”: the “ABA concentration in brain tissue” value in series [1] is 248-429 ng/100 g of fresh weight. For the same substance, the “effect in animals and treated cells” value in series [2] is given as “very little effect”. The solubility in methanol in series [3] (methanol) was 50 mg/mL. Moreover, the solubility entry in series [3] (organic solvents) was “soluble in many organic solvents”. The “acute oral median lethal dose (LD50)” value in series [4] is more than 5000 mg/kg. For the same substance, the results for the ABA activity retained entry in [5] (after 24 hours of incubation with CHO cells) and in series [5] (after 48 hours of incubation with CHO cells) were “about 60%” and “around 23%”, respectively. In addition, the values for the pK in [6] (at 30% of acetonitrile (Kelen 2004)) and in [6] (value used in Henderson-Hasselbalch equation) were 5.82 and 4.7, respectively. The half-life entry in series [7] (administered orally) is given as “about 4 hours”. In series [7] (injected intraperitoneal), the “time until activity detectable in circulation” value is listed as not above 30 min. Moreover, the “% OF IONIZED (ABA^− + H^+)” value in series [8] (pH 5) was 3.5 (0) %; in series [8] (pH 5.5), 27.8 (30) %; in [8] (pH 6.0), 56.4 (60) %; in series [8] (pH 7.0) it was 86.4 (90) %. Moreover, the “% OF NON-IONIZED (ABAH)” value is listed as 96.5 (100) % in series [8] (pH 5), 72.1 (70) % in [8] (pH 5.5), 43.5 (40) % in [8] (pH 6.0) and 13.5 (10) % in series [8] (pH 7.0). The side effects result in series [9] is “no side effects”. Further, the ABA degradation result in series [10] (adding any type of antioxidant) was “zero”; in series [10] (ambient temperature, 21 months) it was 75%; in series [10] (brown PE bottles, no antioxidant or UV absorbent, 33 days at 53 degrees centigrade), 8%.
